Binding of CDR-mutated scFvs to a peptide of the spike HR2 region

From the AlphaSeq antibody data of Engelhart et al. 2022 (doi:10.1038/s41597-022-01779-4), copy in the FLAb collection.

Binding partner: SARS-CoV-2 spike HR2 peptide, sequence PDVDLGDISGINAS.

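Phage display of a naive human antibody library on the peptide gave the parent. The library (AAYL52) carries one to three amino acid substitutions per variant, with no insertions or deletions. In AlphaSeq, yeast of one mating type display the scFv and yeast of the other type display the target. Binding brings cells together so that they mate, and sequencing counts the barcode pairs among the diploids. Scores were corrected for input abundance and mapped to Kd with protein pairs of known affinity run in the same pool. Each pool was mated in three replicate cultures.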

Parent: Ab-95, a human scFv built as VH, a (GGGGS)3 linker, VL. Only the CDRs of the light chain vary.
VH: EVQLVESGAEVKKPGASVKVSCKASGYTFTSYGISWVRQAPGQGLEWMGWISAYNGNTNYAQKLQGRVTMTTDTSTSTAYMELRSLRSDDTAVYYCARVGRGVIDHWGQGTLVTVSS
VL: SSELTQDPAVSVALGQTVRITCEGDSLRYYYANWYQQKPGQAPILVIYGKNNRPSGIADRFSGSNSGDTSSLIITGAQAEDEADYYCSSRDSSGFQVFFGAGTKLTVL

Sequences are complete VL domains.
Numbers give log10(Kd / nM), so 0 is 1 nM and 3 is 1 µM. Smaller is tighter.
A pair that was not seen in that replicate is written "n.d."; this usually means weak binding, but a binder can also be missed.
Background: pairings of library AAYL52 with three empty control strains gave a value in 28% of cases (median 3.91, 5th percentile 2.90). Values in that range, when seen in few replicates, are hard to tell from nonspecific mating. The control count says in how many pairings with the empty strains this scFv gave a signal, with their mean in brackets.

VL,"log10 Kd, replicates",empty controls
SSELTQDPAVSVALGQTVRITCEGDSLRYYYQNWYQQKPGQAPILVIYGKNNRPSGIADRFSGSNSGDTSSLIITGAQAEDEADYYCYSRDSSGFHVFFGAGTKLTVL,2.03 / 1.68 / 1.46,2 of 9 (4.47)
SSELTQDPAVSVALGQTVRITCEGDFARYYYANWYQQKPGQAPILVIYGKNNRHSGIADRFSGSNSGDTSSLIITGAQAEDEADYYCSSRDSSGFQVFFGAGTKLTVL,4.85 / n.d. / n.d.,2 of 9 (3.31)
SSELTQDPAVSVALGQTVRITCEGDNLAYYYANWYQQKPGQAPILVIYGKNNRPSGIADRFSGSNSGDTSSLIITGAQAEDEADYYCCSRDSSGFQVFFGAGTKLTVL,3.45 / n.d. / 3.20,1 of 9 (4.59)
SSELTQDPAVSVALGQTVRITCETDSLRYLEANWYQQKPGQAPILVIYGKNNRPSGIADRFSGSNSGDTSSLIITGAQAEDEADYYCSSRDSSGFQVFFGAGTKLTVL,2.03 / 2.11 / 1.59,0 of 9
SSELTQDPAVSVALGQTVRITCTGDSLRYYYANWYQQKPGQAPILVIYGKNNRPSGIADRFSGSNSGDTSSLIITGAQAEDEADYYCSSRDSCGFVVFFGAGTKLTVL,2.44 / 2.64 / 1.82,4 of 9 (3.65)
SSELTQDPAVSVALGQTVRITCEGDSLRYYYANWYQQKPGQAPILVIYFKNNRPHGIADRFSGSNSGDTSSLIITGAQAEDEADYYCSSRDSSGHQVFFGAGTKLTVL,3.59 / n.d. / n.d.,0 of 9
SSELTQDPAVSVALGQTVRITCEGDSLRYYYANWYQQKPGQAPILVIYGKNNRPSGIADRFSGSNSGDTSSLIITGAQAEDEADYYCGSRQSSGTQVFFGAGTKLTVL,n.d. / n.d. / 2.89,2 of 9 (4.27)
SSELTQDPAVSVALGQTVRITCEGDSLRHYYANWYQQKPGQAPILVIYGKNNRPSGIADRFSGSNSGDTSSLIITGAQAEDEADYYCSSLDSSGFYVFFGAGTKLTVL,4.86 / 5.07 / n.d.,6 of 9 (4.34)
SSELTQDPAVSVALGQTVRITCEGDQLRYQWANWYQQKPGQAPILVIYGKNNRPSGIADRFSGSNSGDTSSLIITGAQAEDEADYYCSSRDSSGFQVFFGAGTKLTVL,1.89 / 1.54 / 0.74,2 of 9 (3.53)
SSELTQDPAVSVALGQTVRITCEGDDDRYYYANWYQQKPGQAPILVIYGKNNGPSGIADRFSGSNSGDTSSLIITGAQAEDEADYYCSSRDSSGFQVFFGAGTKLTVL,n.d. / n.d. / n.d.,1 of 9 (3.25)
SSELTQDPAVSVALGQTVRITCEGDSLRYYYANWYQQKPGQAPILVIYGKANRPSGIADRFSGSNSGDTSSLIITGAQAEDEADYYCSSYDSSGWQVFFGAGTKLTVL,4.85 / n.d. / n.d.,4 of 9 (3.80)
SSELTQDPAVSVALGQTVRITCEGDSIRYYAANWYQQKPGQAPILVIYGKNNRPSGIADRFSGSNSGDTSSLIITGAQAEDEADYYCLSRDSSGFQVFFGAGTKLTVL,3.09 / n.d. / n.d.,2 of 9 (2.19)
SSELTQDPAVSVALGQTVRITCEGASLRYYYANWYQQKPGQAPILVIYGKNNRPSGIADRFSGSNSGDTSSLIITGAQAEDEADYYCSSQDSAGFQVFFGAGTKLTVL,1.97 / 1.91 / 1.30,2 of 9 (4.14)
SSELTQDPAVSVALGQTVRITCEGDSLRYYYANWYQQKPGQAPILVIYGKNNRHSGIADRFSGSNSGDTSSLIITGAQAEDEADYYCSSRDPSGWQVFFGAGTKLTVL,5.14 / n.d. / n.d.,4 of 9 (4.48)
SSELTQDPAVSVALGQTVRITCEGDALAYYYANWYQQKPGQAPILVIYGKNNRPSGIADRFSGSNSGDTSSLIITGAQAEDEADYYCSSRDSKGFQVFFGAGTKLTVL,2.77 / 3.05 / 3.10,1 of 9 (3.81)
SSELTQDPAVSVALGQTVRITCEGDSLRYYYANWYQQKPGQAPILVIYGKNNRLSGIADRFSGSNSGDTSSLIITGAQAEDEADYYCSSRKSSGVQVFFGAGTKLTVL,3.54 / 3.62 / 3.13,4 of 9 (4.33)

The 3 strongest on average among those seen in every replicate, once more:

VL,"log10 Kd, replicates",empty controls
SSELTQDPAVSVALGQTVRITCEGDQLRYQWANWYQQKPGQAPILVIYGKNNRPSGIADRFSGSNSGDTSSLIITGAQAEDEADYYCSSRDSSGFQVFFGAGTKLTVL,1.89 / 1.54 / 0.74,2 of 9 (3.53)
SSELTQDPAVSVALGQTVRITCEGDSLRYYYQNWYQQKPGQAPILVIYGKNNRPSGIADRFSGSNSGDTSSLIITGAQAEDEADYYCYSRDSSGFHVFFGAGTKLTVL,2.03 / 1.68 / 1.46,2 of 9 (4.47)
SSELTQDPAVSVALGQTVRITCEGASLRYYYANWYQQKPGQAPILVIYGKNNRPSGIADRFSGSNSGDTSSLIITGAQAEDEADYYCSSQDSAGFQVFFGAGTKLTVL,1.97 / 1.91 / 1.30,2 of 9 (4.14)